Earlier results, collected in US20260224567A1, “METHODS FOR TREATING NEUROBLASTOMA WITH A DUAL ANAPLASTIC LYMPHOMA KINASE AND FOCAL ADHESION KINASE INHIBITOR” (The Regents of the University of Michigan, priority 2023, published 2026).

Protein sequences, listed by entry. Tags and fused reporters are not part of them.
UniProt Q05397, whole entry: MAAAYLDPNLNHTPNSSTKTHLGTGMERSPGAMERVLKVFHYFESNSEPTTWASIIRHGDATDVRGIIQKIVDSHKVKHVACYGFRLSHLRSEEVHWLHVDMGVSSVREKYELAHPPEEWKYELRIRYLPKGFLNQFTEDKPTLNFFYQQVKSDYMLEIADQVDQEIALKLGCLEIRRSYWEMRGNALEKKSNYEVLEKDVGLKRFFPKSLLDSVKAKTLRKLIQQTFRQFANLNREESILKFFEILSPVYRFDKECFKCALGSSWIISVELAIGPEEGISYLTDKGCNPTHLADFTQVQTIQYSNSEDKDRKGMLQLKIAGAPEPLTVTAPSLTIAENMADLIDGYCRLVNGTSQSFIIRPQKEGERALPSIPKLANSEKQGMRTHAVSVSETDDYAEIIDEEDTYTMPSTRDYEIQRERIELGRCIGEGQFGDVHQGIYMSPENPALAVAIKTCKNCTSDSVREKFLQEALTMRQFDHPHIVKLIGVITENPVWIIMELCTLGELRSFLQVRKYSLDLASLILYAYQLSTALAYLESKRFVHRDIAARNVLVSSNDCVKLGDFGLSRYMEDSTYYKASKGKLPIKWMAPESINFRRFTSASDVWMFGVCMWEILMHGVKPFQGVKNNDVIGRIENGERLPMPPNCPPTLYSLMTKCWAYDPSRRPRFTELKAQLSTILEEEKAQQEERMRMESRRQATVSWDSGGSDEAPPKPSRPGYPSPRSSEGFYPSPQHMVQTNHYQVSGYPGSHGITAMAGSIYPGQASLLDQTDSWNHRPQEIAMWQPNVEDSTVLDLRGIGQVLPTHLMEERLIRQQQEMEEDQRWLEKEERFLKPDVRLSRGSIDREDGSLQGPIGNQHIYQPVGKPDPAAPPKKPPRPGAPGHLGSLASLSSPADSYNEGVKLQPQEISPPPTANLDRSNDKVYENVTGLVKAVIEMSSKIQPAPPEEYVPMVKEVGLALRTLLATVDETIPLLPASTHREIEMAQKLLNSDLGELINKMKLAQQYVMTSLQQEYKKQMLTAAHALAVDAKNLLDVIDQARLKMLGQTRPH

Target: FAK (Homo sapiens, UniProt Q05397)
Details: Ott et al., J Med Chem 2016; cited from earlier work

For CNC(=O)c1ccccc1Nc1nc(Nc2ccc3c(c2OC)CCC[C@H](N2CCN(CCO)CC2)C3)ncc1Cl [ESK440, (S)-2-((5-chloro-2-((6-(4-(2-hydroxyethyl)piperazin-1-yl)-1-methoxy-6,7,8,9-tetrahydro-5H-benzo[7]annulen-2-yl)amino)pyrimidin-4-yl)amino)-N-methylbenzamide], the “inhibition of enzymatic and cellular biochemical activity of FAK” value is given as “low nanomolar concentrations”.
